Source: US20260132167A1, “METHODS OF INACTIVATING VIRAL CONTAMINANTS WITH A MIXTURE OF SOLVENT AND DETERGENT” (IGI Therapeutics SA, priority 2021, published 2026)

Assay: S/D stability study (TnBP and PS 80 in the S/D buffer)
Format: physicochemical

CCCCOP(=O)(OCCCC)OCCCC
degradation of TnBP in storage conditions (5 weeks, room temperature, protected from light): no degradation | TnBP concentration (T0 (Preparation date), S/D buffer): 0.3% | TnBP concentration (T5 (After 5 weeks), room temperature, protected from light): 0.3%
